Publication PMC11370232, “Repurposing of a library for high-content screening of inhibitors against Echinococcus granulosus” (Parasites & Vectors, 2024)
In brackets after ≈: the same amount, converted by molar mass. Where a name gives a salt, the structure may show the parent alone. Read-outs that look alike come from different tables or passages of the source.

System: E. granulosus PSCs
Assay: microbe, parasite or virus in culture
Settings: Echinococcus granulosus; for killing at 0.5 µM / killing at 2 µM / killing at 10 µM / killing at 50 µM / MIC90: 72 h; for killing at 0.5 µM: read-out: Anti-echinicoccus activity, Dose confirmaiton 0.5uM, second-stage dose-response, 0.5 μM, PSCs; for killing at 2 µM: read-out: Anti-echinicoccus activity, Dose confirmaiton 2uM, second-stage dose-response, 2 μM, PSCs; for killing at 10 µM: read-out: Anti-echinicoccus activity, Dose confirmaiton 10uM, second-stage dose-response, 10 μM, PSCs; for MIC90: read-out: MIC90 (minimum inhibitory concentration causing a 90% death of PSCs)
[1] = read-out: Anti-echinococcus activity % of death
[2] = read-out: Anti-echinococcus activity % of death, 0.5uM, E. granulosus PSCs, compound at 0.5uM
[3] = read-out: Anti-echinococcus activity % of death, 2uM, E. granulosus PSCs, compound at 2uM
[4] = read-out: Anti-echinococcus activity % of death, 10uM, E. granulosus PSCs, compound at 10uM
[5] = read-out: Anti-echinococcus activity % of death, 50uM, E. granulosus PSCs, compound at 50uM
[6] = read-out: Anti-echinococcus activity % of death, 0.5uM
[7] = read-out: Anti-echinococcus activity % of death, 2uM
[8] = read-out: Anti-echinococcus activity % of death, 10uM
[9] = read-out: Anti-echinococcus activity % of death, 50uM
[10] = read-out: Anti-echinicoccus activity, Dose confirmaiton 50uM, second-stage dose-response, 50 μM, PSCs
[11] = read-out: Anti-echinicoccus activity, Initiate hits 50uM, primary screen, 50 μM, PSCs, 3-day incubation, PI staining (death rate of PSCs)

COc1ccccc1COCCCOc1ccc([C@H]2[C@H](CO)CNC[C@@H]2OCc2cc(OC)c3ccccc3c2)cc1 [Ro-66-1168]
mortality at 0.5 µM [1]: 0% | mortality at 2 µM [1]: 0% | mortality at 10 µM [1]: 0% | mortality at 50 µM [1]: 100%

CN(C)CC1CCn2cc(c3ccccc32)C2=C(C(=O)NC2=O)c2cn(c3ccccc23)CCO1 (stereo not drawn) [Ruboxistaurin hydrochloride]
mortality at 0.5 µM [2]: 0% | mortality at 2 µM [3]: 0% | mortality at 10 µM [4]: 100% | mortality at 50 µM [5]: 100%

O=C(C=C(O)c1nnc[nH]1)c1ccc(Cc2ccc(F)cc2)o1 [S-1360]
mortality at 0.5 µM [6]: 0% | mortality at 2 µM [7]: 0% | mortality at 10 µM [8]: 30% | mortality at 50 µM [9]: 100%

CC(C)(Cc1ccc2ccccc2c1)NC[C@@H](O)COc1cccc(Cl)c1C#N [SB 262470]
mortality at 0.5 µM [6]: 0% | mortality at 2 µM [7]: 0% | mortality at 10 µM [8]: 100% | mortality at 50 µM [9]: 100%

Cc1ccc(C(=O)N(CCCN)[C@@H](c2oc3cc(Cl)ccc3c(=O)c2Cc2ccccc2)C(C)C)cc1 [SB-743921]
mortality at 0.5 µM [2]: 0% | mortality at 2 µM [3]: 0% | mortality at 10 µM [4]: 0% | mortality at 50 µM [5]: 100%

N#Cc1ccc(Oc2ccc(NC(=O)Nc3ccc(Cl)c(C(F)(F)F)c3)cc2)cc1 [SC-1]
mortality at 0.5 µM [6]: 0% | mortality at 2 µM [7]: 0% | mortality at 10 µM [8]: 100% | mortality at 50 µM [9]: 100%

Cc1cccc(C(=O)N2CCC(N3CCC(Cc4ccc(S(=O)(=O)c5cccc(Cl)c5)cc4)CC3)CC2)c1N [SCH 211803]
mortality at 0.5 µM [1]: 0% | mortality at 2 µM [1]: 0% | mortality at 10 µM [1]: 0% | mortality at 50 µM [1]: 100%

C[n+]1cc2c3c(ccc2c2ccc4cc5c(cc4c21)OCO5)OCO3 [Sanguinarine chloride, reference compound]
killing at 0.5 µM: 0% | killing at 2 µM: 0% | killing at 10 µM: 100% | killing at 50 µM [10]: 100% | killing at 50 µM [11]: 100%

C[n+]1cc2c3c(ccc2c2ccc4cc5c(cc4c21)OCO5)OCO3 [Sanguinarium chloride]
mortality at 0.5 µM [6]: 0% | mortality at 10 µM [8]: 100% | mortality at 50 µM [9]: 100%

Fc1ccc(-n2cc(CCCCN3CCC4(CC3)OCc3ccccc34)c3ccccc32)cc1 [Siramesine]
mortality at 0.5 µM [2]: 0% | mortality at 2 µM [3]: 0% | mortality at 10 µM [4]: 20% | mortality at 50 µM [5]: 100%

C[C@@H]1CC[C@@]2(NC1)O[C@H]1C[C@H]3[C@@H]4CC=C5C[C@@H](O[C@@H]6O[C@H](CO)[C@H](O)[C@H](O[C@@H]7O[C@H](CO)[C@@H](O)[C@H](O)[C@H]7O)[C@H]6O[C@@H]6O[C@@H](C)[C@H](O)[C@@H](O)[C@H]6O)CC[C@]5(C)[C@H]4CC[C@]3(C)[C@H]1[C@@H]2C [Solasonine]
mortality at 0.5 µM [6]: 0% | mortality at 2 µM [7]: 0% | mortality at 10 µM [8]: 0% | mortality at 50 µM [9]: 100%

CN[C@@H]1C[C@H]2O[C@@](C)([C@@H]1OC)n1c3ccccc3c3c4c(c5c6ccccc6n2c5c31)C(=O)NC4 [Staurosporine]
mortality at 0.5 µM [6]: 100% | mortality at 2 µM [7]: 100% | mortality at 10 µM [8]: 100% | mortality at 50 µM [9]: 100%

CN(C)CCC1CCc2cc(OCc3ccc(-c4ccccc4)cc3)ccc2C1 (stereo not drawn) [TAK-070]
mortality at 0.5 µM [1]: 0% | mortality at 2 µM [1]: 0% | mortality at 10 µM [1]: 0% | mortality at 50 µM [1]: 100%

O=C1NC(=O)/C(=C\c2ccccc2)C2=C1CCCC2 [TESIMIDE]
mortality at 0.5 µM [1]: 0% | mortality at 2 µM [1]: 0% | mortality at 10 µM [1]: 0% | mortality at 50 µM [1]: 100%

Cc1cc(-c2cc(O)ccc2Cl)cc2nnc(Nc3ccc(OCCN4CCCC4)cc3)nc12 [TG 100572 (Hydrochloride)]
mortality at 0.5 µM [6]: 0% | mortality at 2 µM [7]: 0% | mortality at 10 µM [8]: 100% | mortality at 50 µM [9]: 100%

CN1C/C=C/CCOc2cccc(c2)-c2ccnc(n2)Nc2cccc(c2)C1 [TG-02]
mortality at 0.5 µM [2]: 0% | mortality at 2 µM [3]: 0% | mortality at 10 µM [4]: 0% | mortality at 50 µM [5]: 100%

COc1ccc(C(=O)CN(C)C(=O)/C=C/c2cccnc2)cc1OC [TJN-598]
mortality at 0.5 µM [6]: 0% | mortality at 2 µM [7]: 60% | mortality at 10 µM [8]: 100% | mortality at 50 µM [9]: 100%

O=C(/C(=C/c1ccc(Cl)cc1Cl)n1ccnc1)c1ccc(Cl)cc1 [TS-80]
mortality at 0.5 µM [6]: 0% | mortality at 2 µM [7]: 0% | mortality at 10 µM [8]: 50% | mortality at 50 µM [9]: 100%

CC/C(=C(\c1ccccc1)c1ccc(OCCN(C)C)cc1)c1ccccc1 [Tamoxifen citrate, reference compound]
killing at 0.5 µM: 0% | killing at 2 µM: 0% | killing at 10 µM: 0% | killing at 50 µM [11]: 76%

[H]/N=C(/NCCCCC)N/N=C/c1c[nH]c2ccc(OC)cc12 [Tegaserod maleate]
mortality at 0.5 µM [1]: 0% | mortality at 2 µM [1]: 0% | mortality at 10 µM [1]: 0% | mortality at 50 µM [1]: 100%

CC(C)(C)c1ccc(C(O)CCCN2CCC(C(O)(c3ccccc3)c3ccccc3)CC2)cc1 (stereo not drawn) [Terfenadine, reference compound]
MIC90: 23.1 µM (≈ 10.9 µg/mL) | mortality at 0.5 µM [2]: 0% | mortality at 2 µM [3]: 0% | mortality at 10 µM [4]: 100% | mortality at 50 µM [5]: 100%

c1cc2c(cc1C1CCCCC1)c1c3n2CCNC3CCC1 (stereo not drawn) [Tetrindole]
mortality at 0.5 µM [1]: 0% | mortality at 2 µM [1]: 0% | mortality at 10 µM [1]: 0% | mortality at 50 µM [1]: 100%

CSc1ccc2c(c1)N(CCC1CCCCN1C)c1ccccc1S2 (stereo not drawn) [Thioridazine hydrochloride, reference compound]
killing at 0.5 µM: 0% | killing at 2 µM: 0% | killing at 10 µM: 0% | killing at 50 µM [10]: 100% | killing at 50 µM [11]: 100%

CN1CCN(CCCN2c3ccccc3Sc3ccc(C(F)(F)F)cc32)CC1 [Trifluoperazine dihydrochloride, reference compound]
killing at 0.5 µM: 0% | killing at 2 µM: 0% | killing at 10 µM: 0% | killing at 50 µM [10]: 100% | killing at 50 µM [11]: 100%

CN1CCN(CCCN2c3ccccc3Sc3ccc(C(F)(F)F)cc32)CC1 [Trifluoperazine hydrochloride]
mortality at 0.5 µM [6]: 0% | mortality at 2 µM [7]: 0% | mortality at 10 µM [8]: 0% | mortality at 50 µM [9]: 100%

Cn1ncc(Cl)c1-c1cc(C(=O)N[C@H](CN)Cc2ccc(F)c(F)c2)oc1Cl [Uprosertib]
mortality at 0.5 µM [6]: 0% | mortality at 2 µM [7]: 0% | mortality at 10 µM [8]: 100% | mortality at 50 µM [9]: 100%

Cc1cc(F)ccc1[C@H]1CNCCN1C(=O)N(C)[C@H](C)c1cc(C(F)(F)F)cc(C(F)(F)F)c1 [VESTIPITANT]
mortality at 0.5 µM [6]: 0% | mortality at 2 µM [7]: 0% | mortality at 10 µM [8]: 0%

CC(=O)Oc1cc(C)c(OC(C)=O)c2ccccc12 [Vitamin K4, reference compound]
MIC90: 8.9 µM (≈ 2.3 µg/mL)

Cc1ccc(Sc2ccccc2N2CCNCC2)c(C)c1 [Vortioxetine hydrobromide]
mortality at 0.5 µM [1]: 0% | mortality at 2 µM [1]: 0% | mortality at 10 µM [1]: 0% | mortality at 50 µM [1]: 100%

Cc1nnc(-c2cc3c(OC[C@@H](O)CN4CCC(c5ccc(Cl)c(Cl)c5)CC4)cccc3o2)o1 [WF-516]
mortality at 0.5 µM [1]: 0% | mortality at 2 µM [1]: 0% | mortality at 10 µM [1]: 0% | mortality at 50 µM [1]: 100%

CC1=C(CO)C(=O)O[C@@H]([C@@H](C)[C@H]2CC[C@H]3[C@@H]4C[C@H]5O[C@]56[C@@H](O)C=CC(=O)[C@]6(C)[C@H]4CC[C@]23C)C1 [WITHAFERIN A]
mortality at 0.5 µM [2]: 0% | mortality at 2 µM [3]: 0% | mortality at 10 µM [4]: 100% | mortality at 50 µM [5]: 100%
